Laboratory results from patent US20260242438A1, “INSULIN HYBRID PEPTIDE COMPRISING CHYMOTRYPSIN INHIBITORY PEPTIDE, AND USE THEREOF” (INSTITUTE OF MATERIA MEDICA, CHINESE ACADEMY OF MEDICAL …, priority 2022, published 2026).

What was measured:
chymotrypsin [1] = target: T1, chymotrypsin (Bos taurus, UniProt P00766); test: Determination of enzyme inhibitory activity against chymotrypsin (substrate AAPFpNA, OD 405 nm); type: biochemical; conditions: peptide 0.1 μM; read-out: Residual activity of chymotrypsin
Protocol: The substrates N-succinyl-Ala-Ala-Pro-Phe-p-nitroaniline (AAPFpNA) is used in competitive binding reaction to determine the inhibitory activities against α -chymotrypsin. Experiments for a-chymotrypsin was measured in 20 mM CaCl2, 50 mM Tris-HCl buffer (pH 7.8). The concentration of the peptide was measured using optical density (OD) at 280 nm. The Michaelis constant (Km) of the enzyme hydrolysis substrate is calculated from the initial rate of substrate hydrolysis at 405 nm. The absorbance value of the substrate was measured at 405 nm after complete hydrolysis. All data were processed using nonlinear regression.
(1) Added a total 190 μL of reaction buffer (20 mM CaCl2, 50 mM Tris-HCl (pH 7.8)), different concentrations of anti-chymorypsin peptides (CHs) into the pre-cold 96 well plate, followed by preheating at 37° C. for 5 min and centrifugated at 500 rpm for 1 min and allowed to stand for 4 minutes. Then added 8 μL of 750 nM chymotrypsin and incubated at 37° C. for 10 min, and centrifugated at 500 rpm for 1 min and allowed to stand for 9 minutes. Finally, added 2 μL of 50 mM AAPFpNA, and mixed by centrifugation at 500 rpm for 1 min. The plate was incubated at 37° C. for 90 min, and the absorbance value at 405 nm was measured. […]

chymotrypsin [2] = target: T1, chymotrypsin; test: Stability of insulin and insulin hybrid peptides against chymotrypsin hydrolysis (RP-HPLC remaining peak area); type: in vitro ADME; conditions: peptide 60 μM, chymotrypsin 1.0 ng/μL, 37° C.
Protocol: Control test: […] Mix by centrifugation at 8000 rpm for 30 seconds.

| remaining activity at 0.1 µM (chymotrypsin [1]) [%] | Compound | Remaining peak area (%)/chymotrypsin (chymotrypsin [2]; 0.0 h) [%] | Remaining peak area (%)/chymotrypsin (chymotrypsin [2]; 0.5 h) [%] | Remaining peak area (%)/chymotrypsin (chymotrypsin [2]; 1.0 h) [%] | Remaining peak area (%)/chymotrypsin (chymotrypsin [2]; 2.0 h) [%] | Remaining peak area (%)/chymotrypsin (chymotrypsin [2]; 3.0 h) [%] | Remaining peak area (%)/chymotrypsin (chymotrypsin [2]; 4.0 h) [%] | Remaining peak area (%)/chymotrypsin (chymotrypsin [2]; 4.0 h, listed as human insulin) |
| --- | --- | --- | --- | --- | --- | --- | --- | --- |
| 10.3 ± 1.7 | CC[C@H](C)[C@@H]1NC(=O)[C@@H]2CCCN2C(=O)[C@@H]2CCCN2C(=O)[C@H]([C@@H](C)CC)NC(=O)[C@H](CO)NC(=O)[C@H](Cc2ccc(O)cc2)NC(=O)[C@H]([C@@H](C)O)NC(=O)[C@@H](NC(=O)[C@H](CCCNC(=N)N)NC(=O)CN)CSSC[C@@H](C(=O)N[C@@H](Cc2ccccc2)C(=O)O)NC1=O [CH57] | – | – | – | – | – | – | – |
| – | Insulin | 100.0 ± 0.0 | 70.7 ± 3.0 | 57.4 ± 2.3 | 36.5 ± 1.0 | 21.7 ± 2.1 | 10.3 ± 0.7 | about 10.3% |
